ChEMBL document CHEMBL4376865, “Discovery and Characterization of 1H-1,2,3-Triazole Derivatives as Novel Prostanoid EP4 Receptor Antagonists for Cancer Immunotherapy” (J Med Chem, 2020)

The chains behind the UniProt entries cited, without tags or fusion partners. Where a name states a change or a piece, a line headed by the entry shows the natural chain unless it says otherwise.
UniProt P35408: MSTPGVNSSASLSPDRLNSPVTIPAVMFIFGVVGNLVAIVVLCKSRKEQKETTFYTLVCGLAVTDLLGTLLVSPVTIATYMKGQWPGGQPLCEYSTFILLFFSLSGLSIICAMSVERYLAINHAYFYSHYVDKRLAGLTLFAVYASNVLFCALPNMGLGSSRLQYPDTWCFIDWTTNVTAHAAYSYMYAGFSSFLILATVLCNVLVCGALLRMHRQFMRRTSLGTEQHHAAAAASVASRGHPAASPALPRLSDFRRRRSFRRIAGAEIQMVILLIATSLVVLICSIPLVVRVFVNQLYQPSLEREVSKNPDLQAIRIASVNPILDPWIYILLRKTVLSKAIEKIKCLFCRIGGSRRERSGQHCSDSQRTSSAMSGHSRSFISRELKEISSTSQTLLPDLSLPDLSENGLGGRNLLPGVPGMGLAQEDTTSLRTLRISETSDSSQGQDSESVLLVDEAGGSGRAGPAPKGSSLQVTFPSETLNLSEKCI

What was measured:
RAW264.7 [1] = test: Inhibition of GM-CSF/IL-4 and PGE2-induced IL-4Ralpha mRNA expression in mouse RAW264.7 cells incubated for 24 hrs by qPCR analysis; type: functional, cell-based
RAW264.7 [2] = test: Inhibition of GM-CSF/IL-4 and PGE2-induced iNOS mRNA expression in mouse RAW264.7 cells incubated for 24 hrs by qPCR analysis; type: functional, cell-based
RAW264.7 [3] = test: Inhibition of GM-CSF/IL-4 and PGE2-induced ARG1 mRNA expression in mouse RAW264.7 cells incubated for 24 hrs by qPCR analysis; type: functional, cell-based
RAW264.7 [4] = test: Inhibition of GM-CSF/IL-4 and PGE2-induced IL-10 mRNA expression in mouse RAW264.7 cells incubated for 24 hrs by qPCR analysis; type: functional, cell-based
[5] = molecular target: T1, Prostaglandin E2 receptor EP4 subtype (Homo sapiens, UniProt P35408); test: Inhibition of human EP4 transfected in CHO cells assessed as reduction in PGE2-induced ERK phosphorylation incubated for 20 mins followed by PGE2 stimulation and measured after 10 mins by Western blot analysis; type: cell-based
[6] = molecular target: T1, Prostaglandin E2 receptor EP4 subtype; test: Inhibition of human EP4 transfected in human HEK293 cells co transfected with CRE-luciferase assessed as reduction in PGE2-induced luciferase expression incubated for 24 hrs by luciferase reporter gene Assay; type: functional, cell-based
Homo sapiens [7] = species: Homo sapiens; test: Selectivity index, ratio IC50 for antagonist activity at human EP3 receptor expressed in CHO cells coexpressing G16-alpha assessed as intracellular calcium flux to IC50 for antagonist activity at human EP4 receptor expressed in CHO cells coexpressing G16-alpha assessed as intracellular calcium flu; type: cell-based
RAW264.7 [8] = test: Inhibition of GM-CSF/IL-4 and PGE2-induced IL-1beta mRNA expression in mouse RAW264.7 cells incubated for 24 hrs by qPCR analysis; type: functional, cell-based
[9] = molecular target: T1, Prostaglandin E2 receptor EP4 subtype; test: Inhibition of human EP4 transfected in human HEK293 cells co transfected with SmBit-beta-arrestin. assessed as reduction in PGE2 induced-beta-arrestin recruitment by NanoBiT beta-arrestin recruitment assay; type: cell-based
Homo sapiens [10] = species: Homo sapiens; test: Selectivity index, ratio IC50 for antagonist activity at human EP2 receptor expressed in CHO cells coexpressing G16-alpha assessed as intracellular calcium flux to IC50 for antagonist activity at human EP4 receptor expressed in CHO cells coexpressing G16-alpha assessed as intracellular calcium flu; type: cell-based
Homo sapiens [11] = species: Homo sapiens; test: Selectivity index, ratio IC50 for antagonist activity at human EP1 receptor expressed in CHO cells coexpressing G16-alpha assessed as intracellular calcium flux to IC50 for antagonist activity at human EP4 receptor expressed in CHO cells coexpressing G16-alpha assessed as intracellular calcium flu; type: cell-based
Mus musculus [12] = test: In vivo induction of infiltration of CD45+ CD8+ T-cells in mouse CT26 cells xenografted in BALB/c mouse at 150 mg/kg, po administerd daily for 14 days by flow cytometry analysis; type: functional, organism-based
RAW264.7 [13] = test: Inhibition of GM-CSF/IL-4 and PGE2-induced COX2 mRNA expression in mouse RAW264.7 cells incubated for 24 hrs by qPCR analysis; type: functional, cell-based
[14] = molecular target: T1, Prostaglandin E2 receptor EP4 subtype; test: Inhibition of human EP4 transfected in human HEK293 cells assessed as reduction in PGE2-induced cAMP level incubated for 15 mins followed by PGE2 stimulation and measured every 2 mins for 30 mins by GloSensor cAMP Assay; type: functional, cell-based
RAW264.7 [15] = test: Inhibition of GM-CSF/IL-4 and PGE2-induced CXCL1 mRNA expression in mouse RAW264.7 cells incubated for 24 hrs by qPCR analysis; type: functional, cell-based
Mus musculus [16] = test: In vivo induction of infiltration of CD8+ T-cells in mouse CT26 cells xenografted in BALB/c mouse at 150 mg/kg, po administerd daily for 14 days by immunofluorescence based inverted microscopic analysis; type: functional, organism-based
RAW264.7 [17] = test: Inhibition of GM-CSF/IL-4 and PGE2-induced IL-6 mRNA expression in mouse RAW264.7 cells incubated for 24 hrs by qPCR analysis; type: functional, cell-based

C/C=C/c1nnn(Cc2ccc(C(F)(F)F)cc2)c1C(=O)N[C@@H](C)c1ccc(C(=O)O)cc1
inhibition (RAW264.7 [1]): Dose-dependent effect | inhibition (RAW264.7 [2]): Dose-dependent effect | inhibition (RAW264.7 [3]): Dose-dependent effect | inhibition (RAW264.7 [4]): Dose-dependent effect | inhibition [5]: Dose-dependent effect | inhibition [6]: Dose-dependent effect | Ratio IC50 (Homo sapiens [7]): > 1000 | inhibition (RAW264.7 [8]): Dose-dependent effect | inhibition [9]: Dose-dependent effect | Ratio IC50 (Homo sapiens [10]): > 1000 | Ratio IC50 (Homo sapiens [11]): > 1000 | Activity (Mus musculus [12]): Active | inhibition (RAW264.7 [13]): Dose-dependent effect | inhibition [14]: Dose-dependent effect | inhibition (RAW264.7 [15]): Dose-dependent effect | Activity (Mus musculus [16]): Active | inhibition (RAW264.7 [17]): Dose-dependent effect

The source made the active and inactive calls. The calls are words filed in the database; no cut-off is given here.
